The values that follow come from patent US6333428A, “6-fluorobicyclo[3.1.0]hexane derivatives” (Taisho Pharmaceutical Co., Ltd., priority 1998, dated 2001).

The chains behind the UniProt entries cited, without tags or fusion partners. Residues count along the entry.
UniProt P31421, 19-872: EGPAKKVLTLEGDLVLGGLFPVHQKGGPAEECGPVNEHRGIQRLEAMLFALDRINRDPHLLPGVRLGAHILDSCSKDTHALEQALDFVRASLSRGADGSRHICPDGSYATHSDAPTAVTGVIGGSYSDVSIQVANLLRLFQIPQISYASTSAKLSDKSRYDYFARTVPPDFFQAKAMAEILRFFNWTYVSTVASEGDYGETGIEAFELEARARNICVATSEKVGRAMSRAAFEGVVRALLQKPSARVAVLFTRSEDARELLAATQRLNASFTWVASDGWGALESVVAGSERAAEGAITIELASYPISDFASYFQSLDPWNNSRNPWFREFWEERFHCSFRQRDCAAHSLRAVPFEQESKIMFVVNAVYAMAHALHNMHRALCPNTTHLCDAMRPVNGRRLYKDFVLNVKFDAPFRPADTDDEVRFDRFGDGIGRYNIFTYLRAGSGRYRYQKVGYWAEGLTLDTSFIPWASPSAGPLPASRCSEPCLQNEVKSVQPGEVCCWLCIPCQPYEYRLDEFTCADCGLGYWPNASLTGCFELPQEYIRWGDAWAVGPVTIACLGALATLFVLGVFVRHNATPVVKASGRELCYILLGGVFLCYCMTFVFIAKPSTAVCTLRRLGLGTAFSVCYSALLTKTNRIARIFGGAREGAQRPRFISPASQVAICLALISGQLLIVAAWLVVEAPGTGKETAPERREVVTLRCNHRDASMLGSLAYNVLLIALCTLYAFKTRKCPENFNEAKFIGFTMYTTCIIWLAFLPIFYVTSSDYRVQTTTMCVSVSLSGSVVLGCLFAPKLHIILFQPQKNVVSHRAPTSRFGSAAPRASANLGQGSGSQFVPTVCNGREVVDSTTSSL

The assay has as its target T1, metabotropic glutamate receptors mG1uR2 (Rattus norvegicus, UniProt P31421).
T1 construct: expressed in transfected cells
The experiment in a line: Effect of Test Compounds on cAMP Accumulation (inhibition of Forskolin-stimulated cAMP accumulation in CHO cells stably expressing mGluR2). The format is cell-based. Here is the method: After the medium was replaced with an L-glutamine free medium, they were cultured for 4 hours, and the supernatant liquid was aspirated. After adding 150 μl of PBS(+)-IBMX (10 mM PBS(-), 1 mM MgC12,1 mM CaCl2, 1 mM IBMX), incubation was conducted at 37° C. under the presence of 5% CO2 for 20 minutes. Once again the supernatant liquid was suctioned off, 60 μl of 10^-5 M Forskolin and PBS (+)-IBMX containing the specimens listed in Table 1 between 10^-10 and 10^-4 M were added, incubation was carried out for 15 minutes at 37° C. under the presence of 5% CO2, and a study was carried out for the inhibitory effect of the agonists on the Forskolin stimulation cAMP accumulation quantity [for control, the conditions were set to Forskolin with no addition of the compounds (Tanabe et al., Neuron, 8, 169-179 (1992))]. The reactions were halted by adding 100 μl of ice-cooled ethanol, the entire quantity of the supernatant liquid was collected in a separate plate, then was dried up at normal temperature with an evaporator, and was kept at -20° C. In the dried-up samples, the quantity of cAMP was measured using a cAMP EIA kit (from the Amasham company). The control value was subtracted from each cAMP quantity.
Background: Cyclic AMP is a second messenger, typically raised through Gs and lowered through Gi signalling.

For `N[C@@]1(C(=O)O)CC[C@H]2[C@H](C(=O)O)[C@H]21` [LY354740, (+)-(1S, 2S, 5R, 6S)-2-aminobicyclo [3.1.0]hexane-2,6-dicarboxylic acid, reference compound], the midpoint of inhibition, the IC50, lay at 18.7 nM.
